IC50 data for one compound are collected here from ChEMBL document CHEMBL1132276, “Development of predictive retention-activity relationship models of tricyclic antidepressants by micellar liquid chromatography” (J Med Chem, 1999).

The test has as its target Serotonin (5-HT) receptor. Kind of test: Compound was tested for its inhibitory activity against 5-hydroxytryptamine receptor. It counts as protein assay, Rattus norvegicus.

Broadly, the IC50 is the concentration at which inhibition is half-maximal. Read a high IC50 as weaker potency in that assay.

Consider `CNCCC=C1c2ccccc2CCc2ccccc21` [NORTRIPTYLINE], for which the IC50 turned out to be 170 nM.
